According to ChEMBL document CHEMBL5506001 (J Med Chem, 2024):

Key:
Homo sapiens [1] = species: Homo sapiens; conditions: filed as activator
Homo sapiens [2] = species: Homo sapiens; conditions: filed as activator; remark: listed apart in the source

Work on Cc1nc2cc(OCCN3CCOCC3)c(S(=O)(=O)Nc3ccc(N4C[C@H](C)C[C@@H](C)C4)nc3)cc2c(=O)[nH]1 yielded a deltaH (Homo sapiens [1]) of -10.3 kcal/mol and a deltaS (Homo sapiens [2]) of -12 cal/mol.K.
